# PubChem BioAssay AID588413 (Sanford-Burnham Center for Chemical Genomics, 2011)
# This is a selection; strong and weak results do not stand in their true shares. Activity calls are given as the source filed them.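 How the source made its calls: active means inhibition above about 55% (limit read from the data); inactive means the rest.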
# Experiment: blockers of Gli reporter signaling – luciferase luminescence, Sufu-KO-LIGHT cells, uHTS, primary screen (AID 588413);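 further: 0% = DMSO-treated cells and 100% = wells with medium but no cells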
# Details: Sufu-KO-LIGHT fibroblasts, at 5 µM, stronger effect = higher value
row,Compound,inhibition
1,COc1cc(OC)cc(C(=O)NCC2(N3CCCCC3)CCCCC2)c1,inactive: 14.5%
2,CC(=O)N(c1ccccc1)C1CCNCC1,inactive: 2.37%
3,CCOC(=O)N1CCC(Nc2cccc(C)c2)CC1,inactive: -0.16%
4,COc1cc(C(=O)NCC2(N(C)C)CCCCC2)ccc1OC(F)F,inactive: 16.1%
5,O=P1(N(CCCl)CCCl)SCCCS1,inactive: -0.79%
6,CCCCOc1ccc(C(=O)NCC2(N3CCOCC3)CCCCC2)cc1,inactive: 34.7%
7,O=C(NCC1(N2CCCCC2)CCCCC1)c1ccc(F)cc1,inactive: 2.88%
8,COc1ccc(NC2CCN(CCc3ccccc3)CC2)c(OC)c1,inactive: 4.14%
9,CCOC(=O)N1CCC(Nc2ccc(F)cc2)CC1,inactive: -1.79%
10,CCOc1ccc(C)cc1CN(CCCl)CCCl,inactive: 4.57%
11,O=C1CCN(Cc2ccccc2)CC1,inactive: 1.05%
12,CCOC(=O)N1CCC(Nc2ccc(OC)cc2)CC1,inactive: -7.55%
13,N#CC1(Nc2ccccc2)CCN(Cc2ccccc2)CC1,inactive: 1.37%
14,O=C(NCC1(N2CCCCC2)CCCCC1)c1ccc(Cl)s1,inactive: 15.1%
15,O=C(OC1CN2CCC1CC2)C1c2ccccc2Oc2ccccc21 (stereo not given),inactive: 14.8%
16,COc1ccc(Cl)cc1C(=O)NCC1(N2CCOCC2)CCCCC1,inactive: 10.1%
17,O=C(NCC1(N2CCOCC2)CCCCC1)c1cc2ccccc2o1,inactive: -2.19%
18,O=C(NCC1(N2CCCCC2)CCCCC1)c1ccc(Cl)nc1,inactive: 9.6%
19,Cc1cc(C)cc(N(C(=O)c2ccccc2)C2CCN(C(=O)OC(C)(C)C)CC2)c1,inactive: 14.3%
20,CSc1ccccc1C(=O)NCC1(N2CCCCC2)CCCCC1,inactive: 25.8%
21,Cc1cccc(NC2(C#N)CCN(Cc3ccccc3)CC2)c1,inactive: 0.2%
22,O=C(NCC1(N2CCCCC2)CCCCC1)c1ccc(=O)[nH]c1,inactive: 19%
23,O=C(NCC1(N2CCCCC2)CCCCC1)c1cccs1,inactive: 6.12%

row,Compound,inhibition
1,COc1ccc(C(=O)NCC2(N3CCCCC3)CCCCC2)cc1,inactive: 13%
2,COc1ccc(C(=O)NCC2(N3CCCCC3)CCCCC2)c(OC)c1OC,inactive: 23.2%
3,CC(C)(C)OC(=O)N1CCC(N(C(=O)c2ccccc2)c2ccc(F)cc2)CC1,inactive: 0.87%
4,CCCOc1ccc(C(=O)NCC2(N(C)C)CCCCC2)cc1OC,inactive: 17%
5,CN1CCC(Nc2cccc(F)c2)CC1,inactive: -11.9%
6,O=C(NCC1(N2CCCCC2)CCCCC1)c1cncc(Br)c1,inactive: 16.1%
7,COc1cc(OC)c(C(=O)NCC2(N(C)C)CCCCC2)cc1OC,inactive: 2.79%
8,O=C(NCC1(N2CCOCC2)CCCCC1)c1cc(F)c(F)cc1Cl,inactive: -1.62%
9,COc1ccc(CN(CCCl)CCCl)cc1Cl,inactive: 12.7%
10,CN(C)c1cccc(C(=O)NCC2(N3CCCCC3)CCCCC2)c1,inactive: 30.5%
11,CC(C)c1ccc(NC2CCN(C(=O)OC(C)(C)C)CC2)cc1,inactive: -48%
12,CN1CCN(CCOC(=O)C(O)(c2ccccc2)c2ccccc2)CC1,inactive: 3.69%
13,COc1ccc(NC2CCN(C(=O)OC(C)(C)C)CC2)cc1,inactive: -12.2%
14,CC(C)c1ccc(C(=O)NCC2(N3CCOCC3)CCCCC2)cc1,inactive: 19.4%
15,COc1cc(C(=O)NCC2(N3CCCCC3)CCCCC2)ccc1OC(F)F,inactive: 37.7%
16,O=C(NCC1(N2CCOCC2)CCCCC1)c1cc(=O)[nH]c2ccccc12,inactive: 10.9%
17,O=C(NCC1(N2CCCCC2)CCCCC1)c1cccc(C(F)(F)F)c1,inactive: 24.9%
18,CSc1ccc(C(=O)NCC2(N3CCOCC3)CCCCC2)cc1,inactive: 18.7%
19,O=C(NCC1(N2CCCCC2)CCCCC1)c1cccc([N+](=O)[O-])c1,inactive: 21.3%
20,CCN1CCC(Nc2ccc(Cl)cc2)CC1,inactive: -1.52%
21,N#CC1(Nc2ccccc2)CCN(CCc2ccccc2)CC1,inactive: -17.2%
22,O=C(NCC1(N2CCCCC2)CCCCC1)c1ccc(OC(F)F)cc1,inactive: 34%
